This passage reports EC50 results from patent EP1340979A2, “Neuropeptide receptor and uses thereof” (Pfizer Limited, priority 2002, dated 2003).

Chains of the proteins cited; added tags and fusions are not shown. Lines headed by an entry give the natural chain unless they say otherwise; changes in a name come on top.
UniProt Q96LB2: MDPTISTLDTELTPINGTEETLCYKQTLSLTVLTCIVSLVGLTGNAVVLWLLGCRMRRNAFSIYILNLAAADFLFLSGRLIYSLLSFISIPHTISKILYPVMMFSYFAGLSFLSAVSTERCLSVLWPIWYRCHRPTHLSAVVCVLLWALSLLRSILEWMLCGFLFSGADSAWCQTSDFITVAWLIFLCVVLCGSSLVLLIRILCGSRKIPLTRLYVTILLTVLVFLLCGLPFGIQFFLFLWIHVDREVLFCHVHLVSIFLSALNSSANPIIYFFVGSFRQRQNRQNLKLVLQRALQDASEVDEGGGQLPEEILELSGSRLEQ

For one experiment, the target named is T1, receptor MRGX2 (Homo sapiens, UniProt Q96LB1).
T1 sequence (Q96LB1 1-330): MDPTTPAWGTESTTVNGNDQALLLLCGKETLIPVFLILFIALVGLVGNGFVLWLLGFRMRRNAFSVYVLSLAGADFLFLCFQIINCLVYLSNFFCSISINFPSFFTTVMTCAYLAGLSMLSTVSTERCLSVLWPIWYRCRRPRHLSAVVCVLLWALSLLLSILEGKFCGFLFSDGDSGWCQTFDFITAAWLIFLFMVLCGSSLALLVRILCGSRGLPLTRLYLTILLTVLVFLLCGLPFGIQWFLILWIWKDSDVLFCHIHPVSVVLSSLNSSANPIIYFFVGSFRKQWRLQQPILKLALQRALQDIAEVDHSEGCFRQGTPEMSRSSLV
The experiment is described as follows: Functional assay measuring intracellular calcium mobilisation (FLIPR). Conditions: Preliminary EC50 data for receptor MRGX2; transiently transfected host cells expressing Gα15 / Gqi-5, Fluo3 fluorescence. Details: expressed in transfected cells; host or cells: e.g. HEK293 or CHO-K1 engineered to stably express Galpha15 / Gqi-5. It counts as cell-based. (A change in cytosolic calcium serves as a functional read-out for many receptors and channels.)

For the next experiment, the target named is SNSR4 (Homo sapiens, UniProt Q96LB2). Conditions: SNSR4 (MRGX1); cited from earlier work.

Broadly, the EC50 is the concentration giving half of the maximal effect. For BAM 13-22, at receptor MRGX2, the 50% effective concentration (EC50) was 0.1 µM.

In the case of “Bovine adrenal medulla peptide 22 [BAM 22]”, the concentration for a half-maximal effect (EC50) at SNSR4 was 0.016 µM.
